For one compound, IC50 results are on record in ChEMBL document CHEMBL1153829, “Exploiting chemical libraries, structure, and genomics in the search for kinase inhibitors” (Science, 1998).

Sequences of proteins named here, by UniProt entry; tags and fusion partners are left off.
UniProt Q17066, whole entry: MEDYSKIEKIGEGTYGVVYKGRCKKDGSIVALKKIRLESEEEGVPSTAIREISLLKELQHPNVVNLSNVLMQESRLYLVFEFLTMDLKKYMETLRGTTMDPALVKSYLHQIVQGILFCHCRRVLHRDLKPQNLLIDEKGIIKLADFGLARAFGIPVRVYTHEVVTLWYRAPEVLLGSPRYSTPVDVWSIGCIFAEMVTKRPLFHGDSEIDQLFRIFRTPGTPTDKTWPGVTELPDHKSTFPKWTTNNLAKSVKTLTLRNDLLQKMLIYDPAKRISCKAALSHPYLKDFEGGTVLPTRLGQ

For assay [1], the target named is T1, Cdc2 (Patiria pectinifera, UniProt Q17066). Description: Inhibition of starfish cdc2/cyclin B assessed as [32P] incorporation in histone H1 from 150 µM [gamma32P]ATP.
Assay [2] deals with T1, Cdc2. Description: Inhibition of starfish cdc2/cyclin B assessed as [32P] incorporation in histone H1 from 1.5 mM [gamma32P]ATP.

As for `CC(C)[C@H](CO)Nc1nc(Nc2ccc(C(=O)O)c(Cl)c2)c2ncn(C(C)C)c2n1` [PURVALANOL B], the half-maximal inhibitory concentration (IC50) at Cdc2 [1] was determined as 50 nM; at Cdc2 [2], 250 nM.
